Measurements taken from US12396984B2, “Managing microbial dysbiosis with temocillin” (Entasis Therapeutics, Inc., priority 2019, dated 2025).

Test system: ATCC 12290 Bacteroides thetaiotaomicron
Test: microbe, parasite or virus in culture
Format: cell-based
Conditions: ATCC12290

O=C(O)c1cn(C2CC2)c2cc(N3CCNCC3)c(F)cc2c1=O [Ciprofloxacin]
MIC: 1 µg/mL (≈ 3.02 µM)

Converted amounts (≈) assume the structure as drawn.
